Experiment: Phase 1 MAD study of ALT-801: adverse events (TEAEs), safety overview
[1] = severity not given, only four group pairs printed, dose group of each cell unclear

## CC[C@H](C)[C@H](NC(=O)[C@H](Cc1ccccc1)NC(=O)[C@H](CCC(=O)O)NC(=O)[C@@H]1CCCCNC(=O)CC[C@H](NC(=O)[C@H](CC(=O)O)NC(=O)[C@H](CC(C)C)NC(=O)[C@H](Cc2ccc(O)cc2)NC(=O)[C@H](CCCCN)NC(=O)[C@H](CO)NC(=O)[C@H](Cc2ccc(O)cc2)NC(=O)[C@H](CC(=O)O)NC(=O)[C@H](CO)NC(=O)[C@@H](NC(=O)[C@H](Cc2ccccc2)NC(=O)[C@@H](NC(=O)CNC(=O)[C@H](CCC(N)=O)NC(=O)C(C)(C)NC(=O)[C@@H](N)Cc2c[nH]cn2)[C@@H](C)O)[C@@H](C)O)C(=O)N[C@@H](CCCCNC(=O)[C@H]2O[C@@H](OCCCCCCCCCCCCCCCCCC(=O)O)[C@H](O)[C@@H](O)[C@@H]2O)C(=O)N[C@@H](C)C(=O)N[C@@H](C)C(=O)N1)C(=O)N[C@@H](CCC(N)=O)C(=O)N[C@@H](Cc1c[nH]c2ccccc12)C(=O)N[C@@H](CC(C)C)C(=O)N[C@@H](CC(C)C)C(=O)N[C@@H](CCC(N)=O)C(=O)N[C@H](C(N)=O)[C@@H](C)O [ALT-801, pemvidutide]
Overall (N = 27)
  TEAE Injection site dermatitis; Mild; %: (3.7%)
  TEAE Injection site dermatitis; Mild; n: 1
  TEAE Injection site dermatitis; Moderate; %: (0.0%)
  TEAE Injection site dermatitis; Moderate; n: 0
  TEAE Injection site dermatitis; PLT; %: (0.0%)
  TEAE Injection site dermatitis; PLT; n: 0
  TEAE Injection site dermatitis; Severe; %: (0.0%)
  TEAE Injection site dermatitis; Severe; n: 0
  TEAE Nausea; Mild; %: (40.7%)
  TEAE Nausea; Mild; n: 11
  TEAE Nausea; Moderate; %: (25.9%)
  TEAE Nausea; Moderate; n: 7
  TEAE Nausea; PLT; %: (0.0%)
  TEAE Nausea; PLT; n: 0
  TEAE Nausea; Severe; %: (0.0%)
  TEAE Nausea; Severe; n: 0
  TEAE Palpitation; Mild; %: (3.7%)
  TEAE Palpitation; Mild; n: 1
  TEAE Palpitation; Moderate; %: (0.0%)
  TEAE Palpitation; Moderate; n: 0
  TEAE Palpitation; PLT; %: (0.0%)
  TEAE Palpitation; PLT; n: 0
  TEAE Palpitation; Severe; %: (0.0%)
  TEAE Palpitation; Severe; n: 0
  TEAE Peripheral swelling; Mild; %: (0.0%)
  TEAE Peripheral swelling; Mild; n: 0
  TEAE Peripheral swelling; Moderate; %: (0.0%)
  TEAE Peripheral swelling; Moderate; n: 0
  TEAE Peripheral swelling; PLT; %: (0.0%)
  TEAE Peripheral swelling; PLT; n: 0
  TEAE Peripheral swelling; Severe; %: (0.0%)
  TEAE Peripheral swelling; Severe; n: 0
  TEAE Rectal haemorrhage; Mild; %: (7.4%)
  TEAE Rectal haemorrhage; Mild; n: 2
  TEAE Rectal haemorrhage; Moderate; %: (0.0%)
  TEAE Rectal haemorrhage; Moderate; n: 0
  TEAE Rectal haemorrhage; PLT; %: (0.0%)
  TEAE Rectal haemorrhage; PLT; n: 0
  TEAE Rectal haemorrhage; Severe; %: (0.0%)
  TEAE Rectal haemorrhage; Severe; n: 0
  TEAE Tachycardia; Mild; %: (3.7%)
  TEAE Tachycardia; Mild; n: 1
  TEAE Tachycardia; Moderate; %: (0.0%)
  TEAE Tachycardia; Moderate; n: 0
  TEAE Tachycardia; PLT; %: (0.0%)
  TEAE Tachycardia; PLT; n: 0
  TEAE Tachycardia; Severe; %: (0.0%)
  TEAE Tachycardia; Severe; n: 0
  TEAE Tooth impacted; Mild; %: (0.0%)
  TEAE Tooth impacted; Mild; n: 0
  TEAE Tooth impacted; Moderate; %: (0.0%)
  TEAE Tooth impacted; Moderate; n: 0
  TEAE Tooth impacted; PLT; %: (0.0%)
  TEAE Tooth impacted; PLT; n: 0
  TEAE Tooth impacted; Severe; %: (0.0%)
  TEAE Tooth impacted; Severe; n: 0
  TEAE Toothache; Mild; %: (3.7%)
  TEAE Toothache; Mild; n: 1
  TEAE Toothache; Moderate; %: (0.0%)
  TEAE Toothache; Moderate; n: 0
  TEAE Toothache; PLT; %: (0.0%)
  TEAE Toothache; PLT; n: 0
  TEAE Toothache; Severe; %: (0.0%)
  TEAE Toothache; Severe; n: 0
  TEAE Vessel puncture site pain; Mild; %: (3.7%)
  TEAE Vessel puncture site pain; Mild; n: 1
  TEAE Vessel puncture site pain; Moderate; %: (0.0%)
  TEAE Vessel puncture site pain; Moderate; n: 0
  TEAE Vessel puncture site pain; PLT; %: (0.0%)
  TEAE Vessel puncture site pain; PLT; n: 0
  TEAE Vessel puncture site pain; Severe; %: (0.0%)
  TEAE Vessel puncture site pain; Severe; n: 0
  TEAE Vomiting; Mild; %: (25.9%)
  TEAE Vomiting; Mild; n: 7
  TEAE Vomiting; Moderate; %: (14.8%)
  TEAE Vomiting; Moderate; n: 4
  TEAE Vomiting; PLT; %: (0.0%)
  TEAE Vomiting; PLT; n: 0
  TEAE Vomiting; Severe; %: (0.0%)
  TEAE Vomiting; Severe; n: 0
Overall ALT-801 (N = 27)
  TEAE Cough, maximum severity Mild, subjects %: (3.7%)
  TEAE Cough, maximum severity Mild, subjects n: 1
  TEAE Cough, maximum severity Moderate, subjects %: (0.0%)
  TEAE Cough, maximum severity Moderate, subjects n: 0
  TEAE Cough, maximum severity PLT, subjects %: (0.0%)
  TEAE Cough, maximum severity PLT, subjects n: 0
  TEAE Cough, maximum severity Severe, subjects %: (0.0%)
  TEAE Cough, maximum severity Severe, subjects n: 0
  TEAE Dermatitis contact, maximum severity Mild, subjects %: (14.8%)
  TEAE Dermatitis contact, maximum severity Mild, subjects n: 4
  TEAE Dermatitis contact, maximum severity Moderate, subjects %: (0.0%)
  TEAE Dermatitis contact, maximum severity Moderate, subjects n: 0
  TEAE Dermatitis contact, maximum severity PLT, subjects %: (0.0%)
  TEAE Dermatitis contact, maximum severity PLT, subjects n: 0
  TEAE Dermatitis contact, maximum severity Severe, subjects %: (0.0%)
  TEAE Dermatitis contact, maximum severity Severe, subjects n: 0
  TEAE Eczema, maximum severity Mild, subjects %: (11.1%)
  TEAE Eczema, maximum severity Mild, subjects n: 3
  TEAE Eczema, maximum severity Moderate, subjects %: (0.0%)
  TEAE Eczema, maximum severity Moderate, subjects n: 0
  TEAE Eczema, maximum severity PLT, subjects %: (0.0%)
  TEAE Eczema, maximum severity PLT, subjects n: 0
  TEAE Eczema, maximum severity Severe, subjects %: (0.0%)
  TEAE Eczema, maximum severity Severe, subjects n: 0
  TEAE Hot flush, maximum severity Mild, subjects %: (3.7%)
  TEAE Hot flush, maximum severity Mild, subjects n: 1
  TEAE Hot flush, maximum severity Moderate, subjects %: (0.0%)
  TEAE Hot flush, maximum severity Moderate, subjects n: 0
  TEAE Hot flush, maximum severity PLT, subjects %: (0.0%)
  TEAE Hot flush, maximum severity PLT, subjects n: 0
  TEAE Hot flush, maximum severity Severe, subjects %: (0.0%)
  TEAE Hot flush, maximum severity Severe, subjects n: 0
  TEAE Menorrhagia, maximum severity PLT, subjects %: (0.0%)
  TEAE Menorrhagia, maximum severity PLT, subjects n: 0
  TEAE Oropharyngeal pain, maximum severity Mild, subjects %: (3.7%)
  TEAE Oropharyngeal pain, maximum severity Mild, subjects n: 1
  TEAE Oropharyngeal pain, maximum severity Moderate, subjects %: (0.0%)
  TEAE Oropharyngeal pain, maximum severity Moderate, subjects n: 0
  TEAE Oropharyngeal pain, maximum severity PLT, subjects %: (0.0%)
  TEAE Oropharyngeal pain, maximum severity PLT, subjects n: 0
  TEAE Oropharyngeal pain, maximum severity Severe, subjects %: (0.0%)
  TEAE Oropharyngeal pain, maximum severity Severe, subjects n: 0
  TEAE Papule, maximum severity Mild, subjects %: (3.7%)
  TEAE Papule, maximum severity Mild, subjects n: 1
  TEAE Papule, maximum severity Moderate, subjects %: (0.0%)
  TEAE Papule, maximum severity Moderate, subjects n: 0
  TEAE Papule, maximum severity PLT, subjects %: (0.0%)
  TEAE Papule, maximum severity PLT, subjects n: 0
  TEAE Papule, maximum severity Severe, subjects %: (0.0%)
  TEAE Papule, maximum severity Severe, subjects n: 0
  TEAE Pruritus, maximum severity Mild, subjects %: (3.7%)
  TEAE Pruritus, maximum severity Mild, subjects n: 1
  TEAE Pruritus, maximum severity Moderate, subjects %: (0.0%)
  TEAE Pruritus, maximum severity Moderate, subjects n: 0
  TEAE Pruritus, maximum severity PLT, subjects %: (0.0%)
  TEAE Pruritus, maximum severity PLT, subjects n: 0
  TEAE Pruritus, maximum severity Severe, subjects %: (0.0%)
  TEAE Pruritus, maximum severity Severe, subjects n: 0
  TEAE Rash, maximum severity Mild, subjects %: (7.4%)
  TEAE Rash, maximum severity Mild, subjects n: 2
  TEAE Rash, maximum severity Moderate, subjects %: (0.0%)
  TEAE Rash, maximum severity Moderate, subjects n: 0
  TEAE Rash, maximum severity PLT, subjects %: (0.0%)
  TEAE Rash, maximum severity PLT, subjects n: 0
  TEAE Rash, maximum severity Severe, subjects %: (0.0%)
  TEAE Rash, maximum severity Severe, subjects n: 0
  TEAE Respiratory, thoracic and mediastinal disorders, maximum severity Mild, subjects %: (7.4%)
  TEAE Respiratory, thoracic and mediastinal disorders, maximum severity Mild, subjects n: 2
  TEAE Respiratory, thoracic and mediastinal disorders, maximum severity Moderate, subjects %: (0.0%)
  TEAE Respiratory, thoracic and mediastinal disorders, maximum severity Moderate, subjects n: 0
  TEAE Respiratory, thoracic and mediastinal disorders, maximum severity PLT, subjects %: (0.0%)
  TEAE Respiratory, thoracic and mediastinal disorders, maximum severity PLT, subjects n: 0
  TEAE Respiratory, thoracic and mediastinal disorders, maximum severity Severe, subjects %: (0.0%)
  TEAE Respiratory, thoracic and mediastinal disorders, maximum severity Severe, subjects n: 0
  TEAE Skin and subcutaneous tissue disorders, maximum severity Mild, subjects %: (33.3%)
  TEAE Skin and subcutaneous tissue disorders, maximum severity Mild, subjects n: 9
  TEAE Skin and subcutaneous tissue disorders, maximum severity Moderate, subjects %: (0.0%)
  TEAE Skin and subcutaneous tissue disorders, maximum severity Moderate, subjects n: 0
  TEAE Skin and subcutaneous tissue disorders, maximum severity PLT, subjects %: (0.0%)
  TEAE Skin and subcutaneous tissue disorders, maximum severity PLT, subjects n: 0
  TEAE Skin and subcutaneous tissue disorders, maximum severity Severe, subjects %: (0.0%)
  TEAE Skin and subcutaneous tissue disorders, maximum severity Severe, subjects n: 0
  TEAE Skin lesion, maximum severity Mild, subjects %: (3.7%)
  TEAE Skin lesion, maximum severity Mild, subjects n: 1
  TEAE Skin lesion, maximum severity Moderate, subjects %: (0.0%)
  TEAE Skin lesion, maximum severity Moderate, subjects n: 0
  TEAE Skin lesion, maximum severity PLT, subjects %: (0.0%)
  TEAE Skin lesion, maximum severity PLT, subjects n: 0
  TEAE Skin lesion, maximum severity Severe, subjects %: (0.0%)
  TEAE Skin lesion, maximum severity Severe, subjects n: 0
  TEAE Vascular disorders, maximum severity Mild, subjects %: (3.7%)
  TEAE Vascular disorders, maximum severity Mild, subjects n: 1
  TEAE Vascular disorders, maximum severity Moderate, subjects %: (0.0%)
  TEAE Vascular disorders, maximum severity Moderate, subjects n: 0
  TEAE Vascular disorders, maximum severity PLT, subjects %: (0.0%)
  TEAE Vascular disorders, maximum severity PLT, subjects n: 0
  TEAE Vascular disorders, maximum severity Severe, subjects %: (0.0%)
  TEAE Vascular disorders, maximum severity Severe, subjects n: 0
[1]
  TEAE Hyperglycemia, subjects %: (0%)
  TEAE Hyperglycemia, subjects n: 0

Reference: patent publication US12171806B2, “Therapeutic regimens and methods for lowering blood glucose and/or body weight using GLP-1R and GCGR balanced agonists” (priority 2021, dated 2024)
